# Measured values as given in ChEMBL document CHEMBL4251654, “Structure-based design of human immuno- and constitutive proteasomes inhibitors” (Eur J Med Chem, 2018).
# Target: T1, Proteasome subunit beta type-10 (Homo sapiens) (UniProt P40306)
# T1 sequence (whole entry): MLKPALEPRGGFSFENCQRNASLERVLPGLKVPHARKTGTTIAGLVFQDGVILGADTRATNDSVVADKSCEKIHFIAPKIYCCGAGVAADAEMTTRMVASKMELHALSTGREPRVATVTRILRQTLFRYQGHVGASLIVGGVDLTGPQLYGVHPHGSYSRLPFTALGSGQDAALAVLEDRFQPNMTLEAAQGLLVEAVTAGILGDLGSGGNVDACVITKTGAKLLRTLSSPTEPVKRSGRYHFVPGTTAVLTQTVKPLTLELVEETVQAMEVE
# Assay: Activation of human 20S immunoproteasome beta-2 at 50 uM using BocLRR-AMC as substrate incubated for 15 mins measured for 45 mins by fluorescence assay relative to control
# In short: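 Purified human 20S proteasome (cCP or iCP), 0.3 nM, preincubated 15 min with compound (0.001-50 μM) in pH 8 buffer of 20 mM Tris-HCl, 10% glycerol, 0.005% Triton X-100, 2% DMSO. Then Boc-LRR-AMC at 50 μM was added. AMC fluorescence (ex 360/em 460 nm) was followed 45 min at 37 °C. Activity is relative to an untreated control.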
compound,measurement,value
CC(C)(C)OC(=O)N[C@@H](Cc1ccc(OCc2ccccc2)cc1)C(=O)N[C@@H](CC(N)=O)C(=O)N[C@@H](C[C@]1(O)C(=O)Nc2ccccc21)C(=O)NCc1ccccc1,fold change (FC),1.3
